We go through four compounds from ChEMBL document CHEMBL1130083, “Discovery of prototype peptidomimetic agonists at the human melanocortin receptors MC1R and MC4R” (J Med Chem, 1997).

Amino acid sequences for entries named in this document (tags omitted).
UniProt P32245, whole entry: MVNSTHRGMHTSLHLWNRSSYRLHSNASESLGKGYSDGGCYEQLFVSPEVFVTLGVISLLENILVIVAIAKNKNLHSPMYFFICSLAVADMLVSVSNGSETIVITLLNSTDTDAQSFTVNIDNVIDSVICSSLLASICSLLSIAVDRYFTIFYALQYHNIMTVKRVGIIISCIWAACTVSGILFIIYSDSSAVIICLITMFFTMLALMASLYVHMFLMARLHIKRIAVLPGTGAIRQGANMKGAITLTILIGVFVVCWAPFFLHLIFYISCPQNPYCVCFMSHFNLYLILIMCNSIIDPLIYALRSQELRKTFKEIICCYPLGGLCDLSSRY

Where only a bound is given, the exact number is not on record here.

For experiment [1], the target named is T1, Melanocortin receptor 4 (Homo sapiens, UniProt P32245). Put plainly: Displacement of [125I]NDP-MSH from Melanocortin 4 receptor at 10 uM.
For experiment [2], the target named is T1, Melanocortin receptor 4.

Turning to `CC(=O)N[C@@H](Cc1c[nH]cn1)C(=O)N[C@H](Cc1ccccc1)C(=O)N[C@H](CCCN=C(N)N)C(=O)N[C@@H](Cc1c[nH]c2ccccc12)C(N)=O`, at Melanocortin receptor 4 [1], the concentration for half-maximal inhibition (IC50) was over 10 µM. Turning to `CC(=O)N[C@@H](Cc1cnc[nH]1)C(=O)N[C@H](Cc1ccccc1)C(=O)N[C@@H](CCCN=C(N)N)C(=O)N[C@@H](Cc1c[nH]c2ccccc12)C(N)=O`, the IC50 on Melanocortin receptor 4 [1] was found to be 1.15 µM. At Melanocortin receptor 4 [2], this compound displayed an EC50 of 0.793 µM. With `CC(=O)N[C@@H](Cc1c[nH]cn1)C(=O)N[C@@H](Cc1ccccc1)C(=O)N[C@@H](CCCN=C(N)N)C(=O)N[C@H](Cc1c[nH]c2ccccc12)C(N)=O`, on Melanocortin receptor 4 [1], the IC50 is over 10 µM.

`CC(=O)N[C@@H](Cc1c[nH]cn1)C(=O)N[C@H](Cc1ccccc1)C(=O)N[C@H](CCCN=C(N)N)C(=O)N[C@H](Cc1c[nH]c2ccccc12)C(N)=O` showed a half-maximal inhibitory concentration (IC50) on Melanocortin receptor 4 [1] of over 10 µM.
